The record followed here is ChEMBL document CHEMBL5108045, “Identification and Utilization of a Chemical Probe to Interrogate the Roles of PIKfyve in the Lifecycle of β-Coronaviruses” (J Med Chem, 2022).

Protein sequences, listed by entry. Tags and fused reporters are not part of them. Lines headed by an entry give the natural chain unless they say otherwise; changes in a name come on top.
UniProt Q9Y2I7: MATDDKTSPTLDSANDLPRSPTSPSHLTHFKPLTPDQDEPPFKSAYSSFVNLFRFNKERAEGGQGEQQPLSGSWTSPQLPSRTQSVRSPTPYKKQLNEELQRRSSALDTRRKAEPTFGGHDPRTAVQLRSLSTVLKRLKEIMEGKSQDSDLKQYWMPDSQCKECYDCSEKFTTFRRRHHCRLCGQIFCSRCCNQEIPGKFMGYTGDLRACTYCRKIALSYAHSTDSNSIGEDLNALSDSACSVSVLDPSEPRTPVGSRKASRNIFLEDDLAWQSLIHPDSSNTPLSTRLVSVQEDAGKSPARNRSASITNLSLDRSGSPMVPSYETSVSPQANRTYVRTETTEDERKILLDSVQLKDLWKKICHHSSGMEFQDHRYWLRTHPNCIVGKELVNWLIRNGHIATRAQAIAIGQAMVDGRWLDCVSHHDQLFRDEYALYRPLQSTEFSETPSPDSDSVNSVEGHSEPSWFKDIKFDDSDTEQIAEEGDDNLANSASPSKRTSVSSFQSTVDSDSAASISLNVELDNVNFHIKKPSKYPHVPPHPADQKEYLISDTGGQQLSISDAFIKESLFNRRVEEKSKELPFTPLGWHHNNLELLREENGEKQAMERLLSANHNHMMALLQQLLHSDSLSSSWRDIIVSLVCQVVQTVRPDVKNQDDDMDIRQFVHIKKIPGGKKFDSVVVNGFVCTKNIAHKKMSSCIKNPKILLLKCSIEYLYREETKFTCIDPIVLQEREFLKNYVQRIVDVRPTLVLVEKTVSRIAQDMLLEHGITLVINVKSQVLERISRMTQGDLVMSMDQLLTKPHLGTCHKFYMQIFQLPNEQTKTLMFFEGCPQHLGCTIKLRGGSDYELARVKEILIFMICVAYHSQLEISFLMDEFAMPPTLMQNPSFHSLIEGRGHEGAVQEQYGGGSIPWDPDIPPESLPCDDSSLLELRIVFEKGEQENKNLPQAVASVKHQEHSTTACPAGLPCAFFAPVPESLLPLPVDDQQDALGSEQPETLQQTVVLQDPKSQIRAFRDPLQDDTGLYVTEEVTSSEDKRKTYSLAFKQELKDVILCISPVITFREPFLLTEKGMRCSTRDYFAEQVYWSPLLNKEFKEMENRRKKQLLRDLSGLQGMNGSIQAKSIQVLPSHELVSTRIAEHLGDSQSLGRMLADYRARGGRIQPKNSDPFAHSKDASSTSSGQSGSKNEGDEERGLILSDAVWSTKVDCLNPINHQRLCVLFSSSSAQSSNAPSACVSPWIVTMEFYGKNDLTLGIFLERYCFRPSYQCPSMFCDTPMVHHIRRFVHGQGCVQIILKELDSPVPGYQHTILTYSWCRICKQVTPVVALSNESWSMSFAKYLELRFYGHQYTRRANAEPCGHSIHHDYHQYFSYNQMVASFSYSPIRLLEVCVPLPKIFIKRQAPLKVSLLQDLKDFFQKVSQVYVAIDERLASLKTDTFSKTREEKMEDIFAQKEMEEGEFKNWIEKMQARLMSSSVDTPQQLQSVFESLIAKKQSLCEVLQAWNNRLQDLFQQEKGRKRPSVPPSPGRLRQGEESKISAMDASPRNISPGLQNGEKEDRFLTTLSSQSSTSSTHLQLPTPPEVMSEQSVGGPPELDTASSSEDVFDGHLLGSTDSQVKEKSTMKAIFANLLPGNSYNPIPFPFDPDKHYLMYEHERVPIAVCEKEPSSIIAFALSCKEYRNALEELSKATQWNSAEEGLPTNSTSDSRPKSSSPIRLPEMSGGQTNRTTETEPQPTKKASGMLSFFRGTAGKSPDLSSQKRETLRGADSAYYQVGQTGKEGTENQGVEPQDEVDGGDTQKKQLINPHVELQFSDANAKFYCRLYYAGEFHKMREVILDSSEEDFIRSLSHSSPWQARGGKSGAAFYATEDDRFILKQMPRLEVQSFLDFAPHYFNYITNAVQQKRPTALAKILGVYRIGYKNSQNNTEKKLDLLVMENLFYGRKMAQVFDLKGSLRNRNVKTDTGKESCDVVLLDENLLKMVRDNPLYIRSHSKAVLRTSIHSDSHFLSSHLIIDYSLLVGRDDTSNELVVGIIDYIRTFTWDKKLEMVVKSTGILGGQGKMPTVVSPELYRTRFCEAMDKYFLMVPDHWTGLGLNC

The target in experiment [1] is T1, 1-phosphatidylinositol 3-phosphate 5-kinase (Homo sapiens, UniProt Q9Y2I7). The experiment is described as follows: Inhibition of PIKFYVE in HEK293 cells by NanoBRET assay. The class given is cell-based. (In general: In BRET a luciferase serves as donor, and the signal depends on an acceptor being close.)
Experiment [2] has as its target T1, 1-phosphatidylinositol 3-phosphate 5-kinase. The experiment in a line: Inhibition of human GST tagged PIKFYVE (1493 to end residues) expressed in baculovirus-infected Sf9 cells using PI(3)P:PS as substrate incubated for 60 mins in presence of ATP by ADP-Glo assay. (ADP-Glo first removes unused ATP, then detects ADP through luciferase.)

Each structure is given as a SMILES string. pIC50: −log10 of the molar value.

On to `Nc1ncc2c(n1)-c1c([nH]c3ccc(C4CC4)cc13)CCCC2`, for which the figures for the negative-log IC50 (pIC50) in experiment [1] and in experiment [2] were < 5.00 and 6.14, respectively.
